Test results reported in PubChem BioAssay AID1851 (National Center for Advancing Translational Sciences (NCATS), 2009).
The hits were mostly taken out for another list; the other results follow. Records with an inconclusive call do not appear. Activity calls are given as the source filed them. Calls follow the shape of the dose curve; as a rule, active = well fitted curve in the direction sought with a large enough effect; inconclusive = small, poorly fitted or top-dose-only effect, or effect the other way; inactive = no such curve, though single readings can be large or run the other way.

The chains behind the UniProt entries cited, without tags or fusion partners.
UniProt P10635, whole entry, looked up: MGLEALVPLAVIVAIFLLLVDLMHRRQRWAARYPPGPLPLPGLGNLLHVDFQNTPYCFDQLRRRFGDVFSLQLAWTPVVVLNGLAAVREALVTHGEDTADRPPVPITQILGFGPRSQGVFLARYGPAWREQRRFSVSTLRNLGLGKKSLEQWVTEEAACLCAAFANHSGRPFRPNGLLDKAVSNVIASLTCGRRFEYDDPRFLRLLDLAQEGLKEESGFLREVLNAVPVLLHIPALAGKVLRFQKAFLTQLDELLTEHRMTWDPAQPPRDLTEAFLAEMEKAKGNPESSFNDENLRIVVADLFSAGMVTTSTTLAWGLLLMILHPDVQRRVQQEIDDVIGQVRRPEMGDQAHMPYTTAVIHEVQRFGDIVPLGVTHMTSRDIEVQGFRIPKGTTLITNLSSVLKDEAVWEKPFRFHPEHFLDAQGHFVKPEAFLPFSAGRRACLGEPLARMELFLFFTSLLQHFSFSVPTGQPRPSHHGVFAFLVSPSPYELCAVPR

target: Cytochrome P450 2D6 (Homo sapiens) (UniProt P10635); test: Cytochrome panel assay with activity outcomes; conditions: recombinant CYP, pro-luciferin dealkylation, luminescence, p450-cyp2d6; at 57.1 µM (top of the series) unless noted
% is scaled to controls: 0 for no effect and ±100 for the full control effect.

SMILES | activity, negative = inhibition
O=C(Nc1cccc(F)c1)N1CCC2(CC1)CCN(C(=O)Oc1ccccc1)CC2 | inactive: -4.74%
CN(CCC(=O)O)C1=Nc2ccc(Cl)cc2C(c2ccccc2)=[N+]([O-])C1 | inactive: 14.4% [at 11.4 µM]
